ChEMBL document CHEMBL4706622, “Comparative study between the anti-P. falciparum activity of triazolopyrimidine, pyrazolopyrimidine and quinoline derivatives and the identification of new PfDHODH inhibitors” (Eur J Med Chem, 2021)

Assays:
Type in all cases: functional
[1] = Resistance index, ratio of IC50 for antimalarial activity against CQ-resistant Plasmodium flaciparum K1 to IC50 for antimalarial activity against CQ-sensitive Plasmodium falciparum 3D7
[2] = Resistance index, ratio of IC50 for antimalarial activity against CQ and mefloquine-resistant Plasmodium flaciparum DD2 to IC50 for antimalarial activity against CQ-sensitive Plasmodium falciparum 3D7
[3] = Resistance index, ratio of IC50 for antimalarial activity against artemisinin-resistant Plasmodium flaciparum IPC4912 to IC50 for antimalarial activity against CQ-sensitive Plasmodium falciparum 3D7

Measured: Ratio IC50

Cc1cc(Nc2ccc(S(=O)(=O)Nc3ccc(C(F)(F)F)cc3)cc2)n2nc(C(F)(F)F)nc2n1
< 1: all assays above
